Measurements: patent publication US20040043420A1, “Method of identifying conformation-sensitive binding peptides and uses thereof” (priority 2003, published 2004)

The chains behind the UniProt entries cited, without tags or fusion partners.
UniProt P10275, whole entry, species assumed: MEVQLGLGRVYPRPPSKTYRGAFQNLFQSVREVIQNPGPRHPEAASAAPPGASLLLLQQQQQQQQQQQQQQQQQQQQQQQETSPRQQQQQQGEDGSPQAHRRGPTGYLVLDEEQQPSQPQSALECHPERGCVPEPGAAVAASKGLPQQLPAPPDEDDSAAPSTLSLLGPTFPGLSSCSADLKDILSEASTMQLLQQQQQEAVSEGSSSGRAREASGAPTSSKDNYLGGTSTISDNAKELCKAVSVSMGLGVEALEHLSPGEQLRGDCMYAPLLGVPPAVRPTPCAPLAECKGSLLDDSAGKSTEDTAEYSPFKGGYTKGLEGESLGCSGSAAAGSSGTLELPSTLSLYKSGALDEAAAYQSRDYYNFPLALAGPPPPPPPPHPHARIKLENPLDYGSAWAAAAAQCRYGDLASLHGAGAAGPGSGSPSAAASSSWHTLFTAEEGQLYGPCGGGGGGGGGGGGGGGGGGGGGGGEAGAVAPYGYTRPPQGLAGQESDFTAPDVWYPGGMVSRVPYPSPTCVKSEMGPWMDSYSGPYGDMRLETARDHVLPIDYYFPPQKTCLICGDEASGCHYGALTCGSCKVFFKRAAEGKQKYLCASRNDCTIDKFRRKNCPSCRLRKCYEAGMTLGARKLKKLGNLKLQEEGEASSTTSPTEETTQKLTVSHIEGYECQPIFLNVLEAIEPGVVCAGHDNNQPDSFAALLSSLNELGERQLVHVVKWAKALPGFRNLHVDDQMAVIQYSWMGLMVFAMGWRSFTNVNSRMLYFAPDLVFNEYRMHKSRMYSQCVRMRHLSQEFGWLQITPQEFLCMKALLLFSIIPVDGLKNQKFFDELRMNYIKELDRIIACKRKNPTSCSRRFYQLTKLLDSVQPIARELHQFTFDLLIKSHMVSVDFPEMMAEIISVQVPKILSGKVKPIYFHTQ

Target: androgen receptor (Homo sapiens, UniProt P10275)
Test: Yeast two-hybrid screening of unbiased X15 peptide library, ligand-induced β-galactosidase activity (FIG. 3, Table 503)
Format: cell-based
Set-up: expressed in transfected cells; host or cells: Saccharomyces cerevisiae PJ69-4α

## EFRFPFHEMVREWESMGLERVRYAEP [M4D1]
  Fold induction: >2
